Assays:
in vitro [1] = conditions: human, plasma
in vivo [2] = conditions: Nu/Nu, mouse, iv
physchem = conditions: buffer, pH 7.4
in vitro [3] = conditions: mouse, plasma
[4] = Nu/Nu, mouse, in vivo, ip, 41 umol/kg
in vivo [5] = conditions: Nu/Nu, mouse, ip, 41 umol/kg

SMILES: O=C(O)CC[C@H](NC(=O)c1ccc(N(CCCl)CCCl)cc1)C(=O)O [prodrug, 4-(bis (2-chloroethyl)amino) benzoyl-L-glutamic acid]
- fraction unbound (in vitro [1]): 0.08
- Vd (in vivo [2]): 0.16 L
- clearance (in vivo [2]): 0.62 mL/min
- half-life (in vivo [2]; t1/2 alpha, initial half life): 22.2 min
- half-life (in vivo [2]; t1/2 beta, final half life): 177 min
- half-life (physchem): 1560 min
- fraction unbound (in vitro [3]): 0.06
- t1/2 beta, final half life [4]: 45 min
- half-life (in vivo [5]; t1/2 alpha, initial half life): 7.2 min
- half-life (in vivo [5]; t1/2 beta, final half life): 42 min

From paper PMC1971568, “Disposition of the prodrug 4-(bis (2-chloroethyl) amino) benzoyl-L-glutamic acid and its active parent drug in mice” (British Journal of Cancer, 1990)
